Experimental data from ChEMBL document CHEMBL1135470, “Synthesis and protein kinase inhibitory activity of balanol analogues with modified benzophenone subunits” (J Med Chem, 2002).

Biological target: T1, Protein kinase C epsilon type (Homo sapiens, UniProt Q02156)
T1 sequence (Q02156 whole entry): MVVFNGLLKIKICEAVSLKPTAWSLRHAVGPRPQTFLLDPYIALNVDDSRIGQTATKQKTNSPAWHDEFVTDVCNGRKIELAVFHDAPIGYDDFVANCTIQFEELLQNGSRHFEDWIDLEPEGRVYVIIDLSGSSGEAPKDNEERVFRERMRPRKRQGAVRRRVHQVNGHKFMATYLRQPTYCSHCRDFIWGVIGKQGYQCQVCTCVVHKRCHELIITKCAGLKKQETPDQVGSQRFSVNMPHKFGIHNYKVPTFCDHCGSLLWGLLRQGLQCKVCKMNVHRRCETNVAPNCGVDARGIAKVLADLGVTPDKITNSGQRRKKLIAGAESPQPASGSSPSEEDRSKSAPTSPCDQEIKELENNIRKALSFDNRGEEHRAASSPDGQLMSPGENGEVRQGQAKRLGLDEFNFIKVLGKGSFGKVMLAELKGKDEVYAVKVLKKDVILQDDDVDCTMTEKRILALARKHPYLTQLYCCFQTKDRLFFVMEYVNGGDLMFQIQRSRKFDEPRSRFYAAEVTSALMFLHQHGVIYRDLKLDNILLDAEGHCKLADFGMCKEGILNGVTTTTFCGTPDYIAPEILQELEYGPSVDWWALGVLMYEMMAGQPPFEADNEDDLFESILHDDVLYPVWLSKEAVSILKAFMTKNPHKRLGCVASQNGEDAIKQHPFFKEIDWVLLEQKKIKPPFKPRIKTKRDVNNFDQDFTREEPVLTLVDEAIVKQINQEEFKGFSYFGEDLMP
Experiment: Inhibition of partially purified recombinant human calcium insensitive protein kinase C epsilon
Outline: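 Enzyme source was partially purified recombinant human PKC isozymes and PKA. IC50 was calculated from four-point curves of 10-fold dilutions, following a previously published procedure.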

## O=C(NC1CNCCC[C@H]1OC(=O)c1cc(O)c(C(=O)c2c(O)cccc2C(=O)O)c(O)c1)c1ccc(O)cc1 (stereo partly specified)
  IC50: 38 nM
